Source: ChEMBL document CHEMBL1275523 (Antimicrob Agents Chemother, 2008)

Columns and labels:
Sialidase-4 [1] = biological target: T1, Sialidase-4 (Homo sapiens, UniProt Q8WWR8); assay: Inhibition of human NEU4 expressed in HEK293 cells by fluorometric high-performance liquid chromatography using 4MU-NeuAc substrate; format: cell-based
T1 sequence (Q8WWR8 whole entry): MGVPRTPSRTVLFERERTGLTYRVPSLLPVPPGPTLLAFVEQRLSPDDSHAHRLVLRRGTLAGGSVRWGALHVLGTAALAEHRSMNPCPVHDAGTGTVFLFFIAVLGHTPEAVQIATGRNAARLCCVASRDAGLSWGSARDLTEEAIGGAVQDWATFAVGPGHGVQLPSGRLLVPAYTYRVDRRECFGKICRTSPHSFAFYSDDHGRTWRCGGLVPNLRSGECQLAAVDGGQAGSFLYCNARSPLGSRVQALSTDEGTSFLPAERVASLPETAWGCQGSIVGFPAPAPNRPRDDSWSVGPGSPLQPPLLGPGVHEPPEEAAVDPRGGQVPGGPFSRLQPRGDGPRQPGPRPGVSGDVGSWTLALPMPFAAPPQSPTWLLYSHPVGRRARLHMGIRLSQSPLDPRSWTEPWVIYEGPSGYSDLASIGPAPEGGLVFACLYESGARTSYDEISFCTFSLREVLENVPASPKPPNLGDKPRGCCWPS

Sialidase-4 [2] = biological target: T1, Sialidase-4; assay: Inhibition of human NEU4 expressed in HEK293 cells by fluorometric high-performance liquid chromatography using ganglioside GM3 substrate; format: cell-based

IC50 (Sialidase-4 [1]) | IC50 (Sialidase-4 [2]) | SMILES
73.1 µM |  | CC(=O)N[C@H]1[C@H]([C@H](O)[C@H](O)CO)OC(C(=O)O)=C[C@@H]1O [NEU5AC2EN]
487 µM | 690 µM | CC(=O)N[C@H]1[C@H]([C@H](O)[C@H](O)CO)OC(C(=O)O)=C[C@@H]1N=C(N)N [ZANAMIVIR]
